Patent US20260272870A1, “COMPOSITION FOR USE IN PREVENTION AND/OR TREATMENT OF HUMAN TRANSTHYRETIN AMYLOIDOSIS” (priority 2023, published 2026)

Molecular target: T1, TTR-oligomers in human plasma from ATTRv carriers (TTR V30M; one TTR A45T) (Homo sapiens, UniProt P02766, V50M)
T1 construct: Plasma from ATTR-V30M gene carriers as well as TTR wt was collected using EDTA tubes; from tissue; host or cells: human plasma (EDTA) of ATTRv gene carriers
Experiment: In vitro treatment of human plasma from ATTRv carriers, TTR-oligomer sandwich ELISA (MAB39-44)
Format: biochemical
Conditions: 0-1000 μM (mostly 0-600 μM), 24 h, 37° C., FIG. 4-19
Method: Plasma from ATTR-V30M gene carriers as well as TTR wt was collected using EDTA tubes. All plasma samples were buffered by the addition of a 10× phosphate buffer pH 7.4 to acquire a final phosphate concentration corresponding to 20 mM, and then frozen in liquid nitrogen following storage at -80° C. Before analysis using the plasma was thawed and serial diluted in 20 mM phosphate, 150 mM NaCl, 0.3% tween-20 (PBS-T) following analysis in the below-described ELISA. Samples were only thawed once. […] Thereafter, a blocking buffer was added comprising 2% dry milk dissolved in TRIS 20 mM, pH7.5, 150 mM NaCl, and 0.3% Tween. The plate was washed 3*5 min with TRIS 20 mM, pH7.5, 150 mM NaCl, and 0.3% Tween, hereinafter called the wash buffer. Plasma was diluted 0-1000 times in wash buffer and incubated for 1 hour. Thereafter, the plate was washed 3*5 min with wash buffer. A polyclonal rabbit anti-TTR antibody A0002 (DAKO, Odense Denmark). diluted 1:1000 in blocking buffer, was added and incubated for 1 hour. The plate was washed 3*5 min with wash buffer. An anti-rabbit antibody conjugated to HRP enzyme, (Agrisera, Umeå […]), diluted 1:10 000 in blocking buffer was added and incubated for 1 hour. The plate was washed 3*5 min in wash buffer. […] Absorbance was measured at 550 nm. Alternatively, an enhanced chemoluminscense substrate (Agrisera, Umeå, […]) was used and the luminescence measured. […]

D-pantethine [D-panthethine] was tested, and the “levels of non-native TTR-oligomers in plasma” value was “converts the non-native oligomers back to the native fold”.
